Earlier results as cited in CN104546722A, “米铂脂质体和制法” (priority 2015, dated 2015).

Tested on: hepatocellular carcinoma patients (肝细胞癌患者)
Details: human, in vivo

CCCCCCCCCCCCCC(=O)[O-].CCCCCCCCCCCCCC(=O)[O-].N[C@@H]1CCCC[C@H]1N.O.[Pt+2] [米铂一水合物, (SP-4-2)-[(1R,2R)-1,2环己二氨-N,N′]二(十四酸-O)合铂一水合物]
adverse reactions: 程度较轻,可控且在耐受范围
